Laboratory results from ChEMBL document CHEMBL2177019, “Carbamate derivatives of indolines as cholinesterase inhibitors and antioxidants for the treatment of Alzheimer's disease” (J Med Chem, 2012).

By UniProt entry, the sequences of proteins in these tests, tags left out.
UniProt Q9N1N9, whole entry: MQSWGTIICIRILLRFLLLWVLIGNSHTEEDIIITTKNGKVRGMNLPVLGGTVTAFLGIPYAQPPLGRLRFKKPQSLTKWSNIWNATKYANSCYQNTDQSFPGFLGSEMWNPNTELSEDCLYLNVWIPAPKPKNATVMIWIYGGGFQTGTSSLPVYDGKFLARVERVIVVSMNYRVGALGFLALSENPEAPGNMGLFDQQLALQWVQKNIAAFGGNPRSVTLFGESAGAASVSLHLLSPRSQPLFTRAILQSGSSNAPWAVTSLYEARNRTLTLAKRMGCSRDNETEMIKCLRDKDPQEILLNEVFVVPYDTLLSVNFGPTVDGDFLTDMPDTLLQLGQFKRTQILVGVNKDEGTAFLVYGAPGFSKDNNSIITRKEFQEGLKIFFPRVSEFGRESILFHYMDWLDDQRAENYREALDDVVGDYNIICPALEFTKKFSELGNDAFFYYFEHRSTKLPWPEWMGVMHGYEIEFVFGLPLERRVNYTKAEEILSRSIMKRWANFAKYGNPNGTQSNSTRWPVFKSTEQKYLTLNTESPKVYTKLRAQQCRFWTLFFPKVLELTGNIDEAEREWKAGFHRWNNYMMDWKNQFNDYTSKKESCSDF

Target: Butyrylcholinesterase (Equus caballus, UniProt Q9N1N9)
Assay: Inhibition of equine BuChE after 120 mins by Ellman's method

## CCN(C)C(=O)Oc1cccc([C@H](C)N(C)C)c1 [RIVASTIGMINE]
  IC50: 0.16 µM
